The record followed here is patent publication US20230310478A1, “METHODS AND COMPOSITIONS FOR THE TREATMENT OF PULMONARY HYPERTENSION AND CANCER” (Ann and Robert H. Lurie Children's Hospital of Chicago, priority 2020, published 2023).

Structures are written as SMILES. Counter-ions that a name gives are not always drawn.

For assay [1], the system named is PDGF-B. Nature of the assay: quantitative RT-PCR of PH-causing genes in DMOG-treated HLMVECs: PDGF-B. The assay is classed as cell-based, human. The conditions noted are these: 20 & 40 uM, 24 h, mean±SD.
Assay [2] has as its system Endothelin-1. Nature of the assay: quantitative RT-PCR of PH-causing genes in DMOG-treated HLMVECs: Endothelin-1. The conditions noted are these: 20 & 40 uM, 24 h, mean±SD. The assay is classed as cell-based, human.
The test system of assay [3] is SDF1. Nature of the assay: quantitative RT-PCR of PH-causing genes in DMOG-treated HLMVECs: SDF1. The conditions noted are these: 20 & 40 uM, 24 h, mean±SD.
Assay [4] concerns HIF-2α target genes. Put plainly: quantitative RT-PCR of HIF-2α target genes in PHD2-deficient HLMVECs. The assay is classed as cell-based, human. The conditions noted are these: siPHD2-transfected HLMVECs, quinidine 20 μM, 24 hours.
In assay [5] the test system is HIF-2α. Nature of the assay: HRE luciferase activity in DMOG-treated HLMVECs. The assay is classed as cell-based, human. The conditions noted are these: DMOG 1 mM, quinidine 20 μM, 24 hours.

On to `CCc1c2c(nc3ccc(OC(=O)N4CCC(N5CCCCC5)CC4)cc13)-c1cc3c(c(=O)n1C2)COC(=O)[C@]3(O)CC` [Irinotecan, [(19S)-10,19-diethyl-19-hydroxy-14,18-dioxo-17-oxa-3,13-diazapentacyclo[11.8.0.0^2,11.0^4,9.0^15,20]henicosa-1(21),2,4(9),5,7,10,15(20)-heptaen-7-yl] 4-piperidin-1-ylpiperidine-1-carboxylate; hydrochloride], for which the “PDGF-B expression (control = 1.00)” value in assay [1] (DMOG alone 2.05 ± 0.33, hydrochloride) is 1.16 ± 0.15; in assay [1] (DMOG alone 2.05 ± 0.33, listed as irinotecan, hydrochloride), “inhibited”. The “Endothelin-1 expression (control = 1.00)” value was 0.73 ± 0.46 in assay [2] (DMOG alone 2.36 ± 0.23, hydrochloride) and “inhibited” in assay [2] (DMOG alone 2.36 ± 0.23, listed as irinotecan, hydrochloride). In addition, the “SDF1 expression (control = 1.00)” value was 0.64 ± 0.10 in assay [3] (DMOG alone 1.80 ± 0.06, hydrochloride) and “inhibited” in assay [3] (DMOG alone 1.80 ± 0.06, listed as irinotecan, hydrochloride).

Turning to `C=C[C@H]1C[N@]2CC[C@H]1C[C@@H]2[C@@H](O)c1ccnc2ccc(OC)cc12` [Quinidine, (2-Ethenyl-4-azabicyclo[2.2.2]oct-5-yl)-(6-methoxyquinolin-4-yl)-methanol], the “expression of HIF-2α target genes” value in assay [4] is reported as “inhibited expression of HIF-2α target genes”. The HRE luciferase activity result in assay [5] was “suppression of HRE activity”; in assay [5] (listed as quinidine) it was “inhibited HRE/luciferase activity”.
